Experiments:
[1] = tested on: constitutive active colorectal cancer cell (CRC) Wnt pathway, HCT116 TOPFlash; test: Cellular reporter assay, HCT116 Super TopFlash (constitutive active Wnt pathway), luciferase expression; type: cell-based; details: read-out: HCT116 TOPFlash IC50 [mol/L]; HCT116 Super TopFlash reporter cells, 36 hours incubation, dilution series 50 μM to 15 nM
Protocol: In order to discover and characterize small molecules which inhibit the constitutive active colorectal cancer cell (CRC) Wnt pathway, a cellular reporter assay was employed. The corresponding assay cell was generated by transfection of the colorectal cancer cell line HCT116 (ATCC, #CCL-247) with the Super TopFlash vector (Morin, Science 275, 1997, 1787-1790; Molenaar et al., Cell 86 (3), 1996, 391-399). The HCT116 cell line is cultivated at 37° C. and 5% CO2 in DMEM/F-12 (Life Technologies, #11320-074), supplemented with 2 mM glutamine, 20 mM HEPES, 1.4 mM pyruvate, 0.15% Na-bicarbonate and 10% foetal bovine serum (GIBCO, #10270), this cancer cell line is pathophysiological relevant since it carries a deletion of position S45 in the β-catenin gene, leading to constitutive active Wnt signaling. […]
(§1) In preparation of the assay, the two cell lines were plated 24 hours before at 10000 cells per well of a 384 micro titre plate (MTP) in 30 μL growth medium. Selective inhibitory activity for small molecules on the mutated Wnt pathway was determined after parallel incubation of both (TOP and FOP) HCT116 reporter cell lines with a compound dilution series from 50 μM to 15 nM in steps of 3.16-fold dilutions in CAFTY buffer (130 mM NaCl, 5 mM KCl, 20 mM HEPES, 1 mM MgCl2, 5 mM NaHCO3, pH 7.4) containing 2 mM Ca^2+ and 0.01% BSA. […]

HCT116 FOPFlash = test: Control reporter assay, HCT116 FOP control vector (non-functional TCF elements), luciferase expression; type: cell-based; details: read-out: HCT116 FOPFlash IC50 [mol/L]; HCT116 FOP control reporter cells, 36 hours incubation, dilution series 50 μM to 15 nM
Protocol: In a parallel approach, HCT116 cells were cotransfected with the FOP control vector and pcDNA3. The FOP vector is identical to the TOP construct, but it contains instead of functional TCF elements a randomized, non-functional sequence. For this transfection a stable transfected cell line was generated as well.
as §1, with “BSA. The compounds were thereby serially prediluted in 100% DMSO and thereafter in addition 50 fold into the CAFTY compound dilution buffer (described above). From this dilution 10 μL were added to the cells in 30 μL growth medium and incubated for 36 hours at 37° C. and 5% CO2.” for “BSA.”

Question: Which IC50 [1] does the source give for “1-methyl-4-(2-{[5-{[5-(5-methyl-1,3-thiazol-4-yl)-1,3,4-thiadiazol-2-yl]carbamoyl}-2-(trifluoromethoxy)phenyl]amino}-2-oxoethyl)piperazin-1-ium hexafluorophosphate” here?
Answer: 1200 nM

Question: What about the IC50 (HCT116 FOPFlash) of the same substance?
Answer: ≥ 50000 nM

— patent US20170107212A1, “NOVEL COMPOUNDS” (Bayer Pharma Aktiengesellschaft, priority 2014, published 2017)
